From US10428320B2, “Crystal structure of Staphylococcus aureus Autolysin E, method of producing the crystal and its use in screening methods” (J. Stefan Institute, priority 2015, dated 2019)

System: AtlE
Assay: Ligand binding by soaking of AtlE crystals and X-ray structure determination
Conditions: native crystals soaked with 10 mM solution of the ligands

SMILES | binding to AtlE in crystal complex
CC(=O)NC1C(O)OC(CO)C(O)C1OC(C)C(=O)NC(C)C(=O)NC(CCC(=O)O)C(=O)O [MurP, NAM-ALA-D-GLU] | binds to AtlE structure equivalently to that observed in the NAG-NAM AtlE complex
CC(=O)N[C@@H]1[C@@H](O[C@H](C)C(=O)O)[C@H](O[C@@H]2O[C@H](CO)[C@@H](O)[C@H](O)[C@H]2NC(C)=O)[C@@H](CO)O[C@@H]1O [NAG-NAM, 2-acetamido-4-O-(2-acetamido-2-deoxy-β-d-glucopyranosyl)-3-O-[(R)-1-carboxyethyl]-2-deoxy-α-d-glucopyranose] | only a single molecule of disaccharide was bound to the AtlE active site
